Results from patent US10072023B2, “Diarylethene compounds and uses thereof” (SWITCH MATERIALS, INC., priority 2011, dated 2018).

Experiment: Absorbance at photostationary state (PSS) under simulated sunlight or 365 nm light
Format: physicochemical
Set-up: λ max: unit not given here
Settings: for λ max: wavelength of maximum absorbance in the visible range, ring-closed isoform
Description: In some embodiments, compounds with an increased absorbance at a photostationary state (PSS) or a suitable, or increased contrast ratio, or an increased solubility may be an improvement. A compound with a greater absorbance in the visible range may be used in lesser quantities in a formulation or material to achieve a desired contrast ratio, whereas a compound with a lower absorbance at a PSS may need a higher concentration to achieve a desired contrast ratio. Absorbance at a PSS for selected compounds was measured at 2.0×10^−5 M in triglyme in the absence (full) or presence (+UV) of a UV blocking film with a UV cutoff wavelength of 370 nm (10% transmission at 370 nm), using simulated sunlight (QSUN solar simulator) as a light source, or a 365 nm light source; these PSS are reported in Tables 1.5. […] “Switch” refers to the ability (yes or no) of the compound to be reversibly converted under photochromic and electrochromic conditions between a ring-open isomer and ring-closed isomer.
A sensitivity index (SI) is a ratio of the PSS under 365 nm light to the PSS under full spectrum light (without UV blocking film). SI is an indicator of the sensitivity of the compound to the composition of the incident light (a change in the ratio of UV and visible components)—photochemical ring-opening is induced by a portion of the visible light spectrum.
Photostationary State (PSS) UV/Vis spectra are obtained using an OceanOptics™ Spectrophotometer until absorption in the visible region of the spectrum stabilizes. A 2×10^−5M solution of compound in solvent is prepared, and photofaded using visible light until absorption in the visible region of the spectrum stabilizes. The sample is then irradiated with simulated sunlight (QSUN SS-150 Solar Simulator with xenon arc lamp) until the absorption spectrum stabilizes. To obtain PSS in the presence of a UV blocking film, a second sample is prepared and irradiated as described, with a UV blocking film inserted in the light path when irradiating.

| SMILES | λ max (2.0×10^−5 M in triglyme) | sensitivity index (ratio of PSS under 365 nm light to PSS under full spectrum light (without UV blocking film)) | Absorbance at PSS, 365 nm (365 nm light source, 2.0×10^−5 M in triglyme) |
| --- | --- | --- | --- |
| CC(C)(C)c1ccc(-c2cc(C3=C(c4cc(-c5ccc(C(C)(C)C)s5)sc4-c4ccc(OCCCCC(=O)O)cc4)C(F)(F)C(F)(F)C3(F)F)c(-c3ccc(OCCCCC(=O)O)cc3)s2)s1 [S141, 5,5′-(4,4′-(4,4′-(perfluorocyclopent-1-ene-1,2-diyl)bis(5′-tert-butyl-2,2′-bithiophene-5,4-diyl))bis(4,1-phenylene)bis(oxy))dipentanoic acid] | 643 |  |  |
| CC(C)(C)c1ccc(-c2cc(C3=C(c4cc(-c5ccc(C(C)(C)C)s5)sc4-c4ccc(C(=O)O)s4)C(F)(F)C(F)(F)C3(F)F)c(-c3ccc(C(=O)O)s3)s2)s1 [S119] | 643 |  |  |
| CC(C)(C)c1ccc(-c2cc(C3=C(c4cc(-c5ccc(C(C)(C)C)s5)sc4-c4ccc(OCCCCC#N)cc4)C(F)(F)C(F)(F)C3(F)F)c(-c3ccc(OCCCCC#N)cc3)s2)s1 [S139, 5,5′-(((4,4″-(perfluorocyclopent-1-ene-1,2-diyl)bis(5′-(tert-butyl)-[2″,2″′-bithiophene]-5″,4-diyl))bis(4,1phenylene))bis(oxy))dipentanenitrile] | 644 | 1.25 |  |
| CC(C)(C)c1ccc(-c2cc(C3=C(c4cc(-c5ccc(C(C)(C)C)s5)sc4-c4cccs4)C(F)(F)C(F)(F)C3(F)F)c(-c3cccs3)s2)s1 [S170, 4,4′-(perfluorocyclopent-1-ene-1,2-diyl)bis(5′-tert-butyl-5-(thiopheyl)-2,2′-bithiophene)] |  |  | 0.401 |
